Source: patent US20230218577A1, “USE OF HEAT SHOCK PROTEIN INHIBITORS FOR THE TREATMENT OF NEURODEVELOPMENTAL DISORDERS” (The Children's Medical Center Corporation, priority 2020, published 2023)

Test system: mTORC1 activity (pS6) in Tsc2-sh hippocampal neurons
Assay: mTORC1 high-content screen (mTORC1^HCA) with the Biomol collection library
[1] = Z-score of percent GFP+pS6+ neurons in compound-treated Tsc2-knockdown wells, DIV20, Biomol library screen, replica 1
[2] = Z-score of percent GFP+pS6+ neurons in compound-treated Tsc2-knockdown wells, DIV20, Biomol library screen, replica 2
[3] = Z-score of percent GFP+pS6+ neurons in compound-treated Tsc2-knockdown wells, DIV20, Biomol library, replica 1
[4] = Z-score of percent GFP+pS6+ neurons in compound-treated Tsc2-knockdown wells, DIV20, Biomol library, replica 2

| Compound | T2 Zscore (Replica 1) | T2 Zscore (Replica 2) | T2 Zscore (Replica 1) [1] | T2 Zscore (Replica 2) [2] | other results |
| --- | --- | --- | --- | --- | --- |
| CCCCCC[C@@H]([C@@H](C)O)n1cnc2c(N)ncnc21 (racemic) [EHNA] | 0.1919 | −1.11 |  |  |  |
| CCCCC[C@H](O)CC[C@H]1[C@H](O)CC(=O)[C@@H]1CCCCCCC(=O)O [13,14-Dihydro-PGE1] | 0.6117 | 0.8897 |  |  |  |
| CCCCCCCCCCCCCCC[C@@H](O)[C@H](CO)NC(C)=O [C2 Dihydroceramide] | −0.1079 | −1.131 |  |  |  |
| Nc1ccncc1 [4-Aminopyridine] | 0.1462 | 0.3098 |  |  |  |
| Cn1c2ccccc2c2c3c(c4c5ccccc5n(CCC#N)c4c21)CNC3=O [Go6976] |  |  | 0.2801 | 1.338 |  |
| NC(=S)NCCC[C@H](N)C(=O)O [Thiocitrulline [L-Thiocitrulline]] | 0.5328 | 1.002 |  |  |  |
| CCCCCC(=O)/C=C/C=C\CCCCCCCC(=O)O [13-Keto-octadeca-9Z,11E−dienoic acid] |  |  | 0.2654 | −0.0627 |  |
| CCCCCCCCCCCCCCCCCCOC[C@H](COP(=O)([O-])OCC[N+](C)(C)C)OC(C)=O [PAF C18] | 0.1238 | 0.06865 |  |  |  |
| C=C1O[C@@](CO)(n2cnc3c(N)ncnc32)[C@H](O)[C@@H]1O [Decoyinine] |  |  | 0.3425 | 0.35 |  |
| CC(=O)C1=C(O)[C@@H]2[C@H]3c4c[nH]c5cccc(c45)C[C@H]3C(C)(C)N2C1=O [Cyclopiazonic acid] | 0.1164 | −0.5931 |  |  |  |
| COC(=O)C1=C(C)NC(C)=C([N+](=O)[O-])C1c1ccccc1C(F)(F)F (stereo not drawn) [R)-(+)-BAY K-8644] |  |  | 0.9402 | 0.31 |  |
| CC(=O)c1c(O)c(C)c(O)c(Cc2c(O)c3c(c(C(=O)/C=C/c4ccccc4)c2O)OC(C)(C)C=C3)c1O [Rottierin] | −0.3381 | −0.8716 |  |  |  |
| C=C[C@@]1(C)CC(=O)[C@]2(O)[C@@]3(C)[C@@H](O)CCC(C)(C)[C@@H]3[C@H](O)[C@H](OC(C)=O)[C@@]2(C)O1 [Forskolin] |  |  |  |  | T2 Zscore (Replica 1) [3]: 1.606; T2 Zscore (Replica 2) [4]: 0.7505 |
| CN(C)CCCn1cc(C2=C(c3c[nH]c4ccccc34)C(=O)NC2=O)c2ccccc21 [GF-109203X] | 0.8424 | −0.07521 |  |  |  |
| BW-B 70C | 0.8191 | 0.6147 |  |  |  |
| CC(C)[C@@H](O)CC[C@@H](C)[C@H]1CC[C@H]2[C@@H]3CC=C4C[C@@H](O)CC[C@]4(C)[C@H]3CC[C@]12C [24(S)-hydroxycholesterol] | −0.4822 | −0.1125 |  |  |  |
| CC[C@H](CO)Nc1nc(NCc2ccccc2)c2ncn(C(C)C)c2n1 [Roscovitine] | 1.553 | 1.224 |  |  |  |
| O=C1C2CCN(CC2)C1(CO)CO [PRIMA-1] | 0.6315 | 0.9219 |  |  |  |
| CCCCC/C=C\C/C=C\C/C=C\C/C=C\CCCC(=O)NCC(=O)O [N-arachidonoylglycine] | −0.1329 | −0.3761 |  |  |  |

| Compound | T2 Zscore (Replica 1) | T2 Zscore (Replica 2) | T2 Zscore (Replica 1) [1] | T2 Zscore (Replica 2) [2] | other results |
| --- | --- | --- | --- | --- | --- |
| C=C(C)[C@@H]1CC[C@]2(C(=O)O)CC[C@]3(C)[C@H](CC[C@@H]4[C@@]5(C)CC[C@H](O)C(C)(C)[C@@H]5CC[C@]43C)[C@@H]12 [Betulinic acid] |  |  | 0.6326 | 0.2486 |  |
| (−)-Huperzine A | 1.176 | 0.5809 |  |  |  |
| N#Cc1nn(-c2c(Cl)cc(C(F)(F)F)cc2Cl)c(N)c1[S+]([O-])C(F)(F)F (stereo not shown) [Fipronil] | 1.475 | 0.08261 |  |  |  |
| CC(C)[C@H](NC(=O)OCc1ccccc1)C(=O)N[C@H](C=O)Cc1ccccc1 [MDL-28170] (Cbz-Val-Phe-aldehyde) |  |  |  |  | T2 Zscore (Replica 1) [3]: 0.5982; T2 Zscore (Replica 2) [4]: 1.214 |
| 1-Deoxymannojirimycin hydrochloride |  |  | −0.4582 | 1.454 |  |
| COc1cc2nc(N3CCN(C(=O)c4ccco4)CC3)nc(N)c2cc1OC [Prazocin] | 0.4809 | 0.9591 |  |  |  |
| CC(C)(O)[C@H]1O[C@H]2CC[C@@]3(C)[C@@](O)(CC[C@H]4Cc5c([nH]c6ccccc56)[C@@]43C)C2=CC1=O [Paxilline] | 0.6003 | −0.3283 |  |  |  |
| NC(=O)c1ccc(-c2nc(-c3ccccn3)c(-c3ccc4c(c3)OCO4)[nH]2)cc1 [SB-431542] | 1.006 | −0.8696 |  |  |  |
| CC[C@@]1(O)C(=O)OCc2c1cc1n(c2=O)Cc2cc3cc(O)ccc3nc2-1 [10-hydroxycamptothecin] | −0.7172 | −1.673 |  |  |  |
| Cl.Cl.Fc1ccc(C(c2ccc(F)cc2)N2CCN(C/C=C/c3ccccc3)CC2)cc1 [Flunarizine • 2HCl] | 0.4218 and 0.4911 | 0.7448 and 1.411 |  |  |  |
| CC1=C(/C=C/C(C)=C/C=C/C(C)=C\C(=O)O)C(C)(C)CCC1 [13-cis retinoic acid] |  |  | 0.296 | −0.01693 |  |
| CCCCCCCCCCC1=C(C)C(=O)C(OC)=C(OC)C1=O [Decylubiquinone] |  |  | 0.6423 | 0.4442 |  |
| O=C1CSC(c2ccccc2Cl)c2cc(Cl)ccc2N1 (stereo not shown) [CGP-37157] | −0.3997 | 0.4128 |  |  |  |
| CCN(CC)CCNC(=O)c1ccc(N)cc1 [Procainamide] |  |  | 0.3602 | 0.5304 |  |
| CC1=C2C[C@H]3[C@@H](CC=C4C[C@@H](O)CC[C@@]43C)[C@@H]2CC[C@]12O[C@@H]1C[C@H](C)CN[C@H]1[C@H]2C [Cyclopamine] | 0.5224 | 0.9421 |  |  |  |
| NC(=O)c1cccc(N)c1 [3-aminobenzamide (3-ABA)] | −1.513 | 0.6779 |  |  |  |
| CCCCCCCCCCCCCC(=O)O[C@@H]1[C@@H](C)[C@@]2(O)[C@@H](C=C(CO)C[C@]3(O)C(=O)C(C)=C[C@@H]23)[C@@H]2C(C)(C)[C@]12OC(C)=O [Phorbol 12-myristate 13-acetate] | −0.1442 | 0.5254 |  |  |  |
| COC(=O)[C@@H](N)CCCNC(=N)N[N+](=O)[O-] [L-NAME] |  |  | 0.01616 | 0.3433 |  |
| CC/C(=C(\c1ccccc1)c1ccc(OCCN(C)C)cc1)c1ccccc1 [Tamoxifen] |  |  |  |  | T2 Zscore (Replica 1) [3]: 0.7507; T2 Zscore (Replica 2) [4]: 0.9771 |

| Compound | T2 Zscore (Replica 1) | T2 Zscore (Replica 2) | T2 Zscore (Replica 1) [1] | T2 Zscore (Replica 2) [2] | other results |
| --- | --- | --- | --- | --- | --- |
| CCOC(=O)C1=C(C)NC(=S)NC1c1cccc(O)c1 (stereo not shown) [Monastrol] |  |  | 0.5295 | 0.8621 |  |
| CCCCC/C=C\CC1OC1CCCCCCCC(=O)O (stereo not shown) [Leukotoxin A (9,10-EODE)] | −1.356 | −0.1116 |  |  |  |
| CC1=C(C)C(=O)C(CCCCC#CCCCC#CCO)=C(C)C1=O [AA-861] |  |  | 0.5924 | 0.5603 |  |
| CN(C)C[C@H](O)Cn1c2ccc(Br)cc2c2cc(Br)ccc21 (racemic) [Wiskostatin] |  |  | −0.05566 | 1.137 |  |
| Nc1nc2c(nc(Br)n2[C@@H]2O[C@@H]3COP(=O)(O)O[C@H]3[C@H]2O)c(=O)[nH]1 [8-Bromo-cGMP] | 0.1414 | 0.4611 |  |  |  |
| C=C[C@H]1CN2CC[C@H]1C[C@@H]2[C@@H](O)c1ccnc2ccc(OC)cc12.Cl.O [Quinidine • HCl • H2O] |  |  | 1.364 | 0.1291 |  |
| Clc1ccc(-c2nc3sccn3c2/C=N/OCc2ccc(Cl)c(Cl)c2)cc1 [CITCO] | −0.6413 | 0.08341 |  |  |  |
| CN1CCN(CCCN2c3ccccc3Sc3ccc(C(F)(F)F)cc32)CC1 [Trifluoperazine] |  |  | 0.7275 | 0.6177 |  |
| CC(N/C(=N\C#N)Nc1ccncc1)C(C)(C)C (stereo not shown) [Pinacidil] |  |  | −0.5727 | 0.9147 |  |
| CC1(C)C(C=C(Cl)Cl)C1C(=O)OC(C#N)c1cccc(Oc2ccccc2)c1 (stereo not shown) [Cypermethrin] | 0.7689 | 0.9305 |  |  |  |
| C=CC[C@@H]1/C=C(\C)C[C@H](C)C[C@H](OC)[C@H]2O[C@@](O)(C(=O)C(=O)N3CCCC[C@H]3C(=O)O[C@H](/C(C)=C/[C@@H]3CC[C@@H](O)[C@H](OC)C3)[C@H](C)[C@@H](O)CC1=O)[C@H](C)C[C@@H]2OC [FK-506] |  |  | −0.02301 | 0.7523 |  |
| CC1=C(/C=C/C(C)=C/C=C/C(C)=C/C(=O)O)C(C)(C)CCC1 [All trans retinoic acid] |  |  | −0.2511 | 0.7501 |  |
| CN(Cc1cnc2nc(N)nc(N)c2n1)c1ccc(C(=O)N[C@@H](CCC(=O)O)C(=O)O)cc1 [Methotrexate] |  |  |  |  | T2 Zscore (Replica 1) [3]: 1.222; T2 Zscore (Replica 2) [4]: 0.6112 |
| CC(=O)[C@H]1[C@H](C#N)C[C@H]2[C@@H]3CC=C4C[C@@H](O)CC[C@]4(C)[C@H]3CC[C@@]21C [Pregnenolone-16α-carbonitrile] | 0.899 | −0.3046 |  |  |  |
| N#Cc1cc2c(OCC(O)CN3CCN(C(c4ccccc4)c4ccccc4)CC3)cccc2[nH]1 (stereo not shown) [SDZ-201106] | 1.322 | −0.7211 |  |  |  |
| CCN(CC)CCCCCCCCOC(=O)c1cc(OC)c(OC)c(OC)c1 [TMB-8] | −2.5 | 0.0563 |  |  |  |
| COCc1cc(O)c(O)c(O)c1-c1c(COC)cc(O)c(O)c1O [HBDDE] | 1.214 | −0.04207 |  |  |  |
| CCOC(=O)C1=C[C@]2(CC)CCCN3CCc4c(n1c1ccccc41)[C@@H]32 [Vinpocetin] | −0.2631 | 1.692 |  |  |  |

“And” between values parts separate entries of the source, which are not always exact repeats. Equal entries are not always repeated. Where two headings read alike, the source gives them in different places. Peptide text beside a SMILES is read from it. * marks the point of attachment. Cbz = O=C(OCc1ccccc1)*
